Measured values from publication PMC10060287 (Pharmacological Reports, 2023).

By UniProt entry, the sequences of proteins in these tests, tags left out.
UniProt P33535, whole entry: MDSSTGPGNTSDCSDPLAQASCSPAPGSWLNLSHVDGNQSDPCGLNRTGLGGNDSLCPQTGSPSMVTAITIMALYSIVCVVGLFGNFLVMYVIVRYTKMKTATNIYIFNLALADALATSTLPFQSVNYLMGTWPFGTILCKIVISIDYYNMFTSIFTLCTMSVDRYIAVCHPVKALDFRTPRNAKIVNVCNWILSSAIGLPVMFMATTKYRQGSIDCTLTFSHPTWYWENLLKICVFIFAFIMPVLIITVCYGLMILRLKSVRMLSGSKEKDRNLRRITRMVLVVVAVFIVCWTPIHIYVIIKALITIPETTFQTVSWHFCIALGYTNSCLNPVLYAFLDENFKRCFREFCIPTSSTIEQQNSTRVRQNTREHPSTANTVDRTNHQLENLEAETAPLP

Key:
[1] = molecular target: µ-opioid receptor (µOR) (Rattus norvegicus, UniProt P33535); conditions: 100 µM G-peptide added
[2] = system: µ-opioid receptor (µOR); conditions: cited from earlier work

SMILES: C[C@@H](Cc1ccsc1)NC(=O)NC[C@H](Cc1ccc(O)cc1)N(C)C
- baseline of the binding curve [1]: elevated
- effect of adding G-peptide on ligand affinity / binding curve ([1]; competition against [^3H]DAMGO): increase in the affinity toward µOR
- functional profile [2]: Gi-biased agonist
